The text below walks through data of US20060223846A1, “Aza-bridged-bicyclic amino acid derivatives as alpha4 integrin antagonists” (priority 2005, published 2006).

Amino acid sequences for entries named in this document (tags omitted). Residues count along the entry.
UniProt P13612, 34-1032 limits assumed: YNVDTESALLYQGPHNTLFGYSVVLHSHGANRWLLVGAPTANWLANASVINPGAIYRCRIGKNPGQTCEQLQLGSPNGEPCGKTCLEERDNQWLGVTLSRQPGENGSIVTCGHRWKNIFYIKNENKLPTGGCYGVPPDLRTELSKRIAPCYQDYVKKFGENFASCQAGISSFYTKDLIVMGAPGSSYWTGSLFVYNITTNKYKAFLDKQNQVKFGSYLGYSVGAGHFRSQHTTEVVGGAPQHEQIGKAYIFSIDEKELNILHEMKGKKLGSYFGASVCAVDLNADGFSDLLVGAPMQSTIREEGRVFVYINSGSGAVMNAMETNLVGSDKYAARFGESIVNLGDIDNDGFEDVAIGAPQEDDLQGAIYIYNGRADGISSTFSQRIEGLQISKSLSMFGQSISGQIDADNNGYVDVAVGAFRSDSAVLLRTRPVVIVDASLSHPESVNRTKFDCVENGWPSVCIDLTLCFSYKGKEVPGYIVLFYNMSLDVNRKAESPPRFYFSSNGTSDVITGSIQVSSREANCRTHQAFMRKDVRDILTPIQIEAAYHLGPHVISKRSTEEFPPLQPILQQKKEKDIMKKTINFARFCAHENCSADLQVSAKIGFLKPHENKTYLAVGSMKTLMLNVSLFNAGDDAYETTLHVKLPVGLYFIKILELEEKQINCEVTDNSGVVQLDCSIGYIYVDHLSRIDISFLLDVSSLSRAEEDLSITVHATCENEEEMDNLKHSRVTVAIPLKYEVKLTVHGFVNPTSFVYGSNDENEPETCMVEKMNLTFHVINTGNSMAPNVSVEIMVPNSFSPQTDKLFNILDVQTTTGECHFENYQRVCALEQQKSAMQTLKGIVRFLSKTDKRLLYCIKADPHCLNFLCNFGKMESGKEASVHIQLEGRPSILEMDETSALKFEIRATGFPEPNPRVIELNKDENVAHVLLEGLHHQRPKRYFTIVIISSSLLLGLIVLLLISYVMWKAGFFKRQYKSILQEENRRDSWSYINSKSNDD
UniProt P26010, 20-798 limits assumed: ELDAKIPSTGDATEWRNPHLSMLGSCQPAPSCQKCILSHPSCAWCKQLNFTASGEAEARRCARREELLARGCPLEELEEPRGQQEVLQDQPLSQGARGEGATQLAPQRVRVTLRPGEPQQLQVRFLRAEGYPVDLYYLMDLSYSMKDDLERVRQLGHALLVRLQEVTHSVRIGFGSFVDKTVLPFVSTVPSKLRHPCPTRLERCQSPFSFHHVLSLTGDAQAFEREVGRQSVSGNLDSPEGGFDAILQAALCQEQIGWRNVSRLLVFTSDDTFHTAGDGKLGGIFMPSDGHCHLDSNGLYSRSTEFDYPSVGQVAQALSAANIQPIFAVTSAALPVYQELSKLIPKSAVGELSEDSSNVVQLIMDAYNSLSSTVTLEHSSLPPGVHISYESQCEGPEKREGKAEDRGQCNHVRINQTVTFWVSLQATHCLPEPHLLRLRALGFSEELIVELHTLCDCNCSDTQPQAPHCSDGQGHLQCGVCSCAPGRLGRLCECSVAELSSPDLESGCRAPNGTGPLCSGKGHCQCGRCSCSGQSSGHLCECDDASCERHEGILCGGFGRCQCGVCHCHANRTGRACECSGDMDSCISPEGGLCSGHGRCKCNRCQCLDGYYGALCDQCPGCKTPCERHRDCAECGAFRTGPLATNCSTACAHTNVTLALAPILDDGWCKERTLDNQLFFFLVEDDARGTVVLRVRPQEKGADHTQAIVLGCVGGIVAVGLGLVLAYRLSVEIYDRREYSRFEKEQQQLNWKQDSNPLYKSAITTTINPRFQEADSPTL
UniProt P05556, 21-798 limits assumed: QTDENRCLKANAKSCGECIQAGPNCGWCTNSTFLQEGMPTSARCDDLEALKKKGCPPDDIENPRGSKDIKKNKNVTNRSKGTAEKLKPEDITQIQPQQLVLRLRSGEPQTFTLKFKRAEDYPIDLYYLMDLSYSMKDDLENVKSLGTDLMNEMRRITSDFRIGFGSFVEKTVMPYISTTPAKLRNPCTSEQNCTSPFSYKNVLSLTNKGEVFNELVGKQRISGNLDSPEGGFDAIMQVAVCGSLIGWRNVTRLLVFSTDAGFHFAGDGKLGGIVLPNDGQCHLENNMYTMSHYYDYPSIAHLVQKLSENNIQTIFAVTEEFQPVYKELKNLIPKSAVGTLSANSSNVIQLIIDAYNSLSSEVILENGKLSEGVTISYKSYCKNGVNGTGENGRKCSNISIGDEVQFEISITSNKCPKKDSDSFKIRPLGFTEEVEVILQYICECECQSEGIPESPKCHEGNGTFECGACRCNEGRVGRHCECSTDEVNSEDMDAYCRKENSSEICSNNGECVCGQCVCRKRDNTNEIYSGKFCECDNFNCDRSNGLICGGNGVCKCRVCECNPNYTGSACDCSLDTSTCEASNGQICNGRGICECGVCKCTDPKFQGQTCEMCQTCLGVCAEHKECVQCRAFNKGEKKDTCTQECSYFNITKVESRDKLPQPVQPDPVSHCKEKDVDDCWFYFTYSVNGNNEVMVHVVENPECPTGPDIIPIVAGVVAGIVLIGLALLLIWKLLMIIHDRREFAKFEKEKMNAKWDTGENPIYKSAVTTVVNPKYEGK

Like-named read-outs stand apart in the source and are kept apart here.

The target of one assay is human α4β7 (Homo sapiens, UniProt P13612+P26010). As to the kind of experiment: α4β7-K562 Cell Adhesion Assay (α4β7 Mediated Adhesion/VCAM-1). The note with it: read-out: α4β7 IC50, K562 cells expressing human α4β7 on recombinant hVCAM-1.
The next assay has as its target α4β1 (Homo sapiens, UniProt P05556+P13612). As to the kind of experiment: Ramos Cell Adhesion Assay (α4β1 Mediated Adhesion/VCAM-1). The note with it: read-out: α4β1 IC50, Ramos cells on recombinant hVCAM-1.

Regarding `CC(C)(C)C(=O)N1C2CCC(CC2)C1C(=O)N[C@@H](Cc1ccc(NC(=O)c2c(Cl)cncc2Cl)cc1)C(=O)O` (stereo partly drawn), the figures for the IC50 at human α4β7 and at α4β1 were 119 nM and 38 nM, respectively.

On to `COc1ccc(OC)c(CC(=O)N2C3CCC(CC3)C2C(=O)N[C@@H](Cc2ccc(NC(=O)c3c(Cl)cncc3Cl)cc2)C(=O)O)c1` (stereo partly drawn), for which the IC50 is 131 nM at human α4β7 (tested form: TFA) and 116 nM on α4β1 (tested form: TFA). As to `COc1ccc(CCC(=O)N2C3CCC(CC3)C2C(=O)N[C@@H](Cc2ccc(NC(=O)c3c(Cl)cncc3Cl)cc2)C(=O)O)cc1` (stereo partly drawn), the IC50 on human α4β7 was 7 nM; at α4β1, 2 nM.

Take `O=C(Nc1ccc(C[C@H](NC(=O)C2C3CCC(CC3)N2C(=O)CCc2cccs2)C(=O)O)cc1)c1c(Cl)cncc1Cl` (stereo partly drawn): the figures for the IC50 on human α4β7 and on α4β1 were 19 nM and < 3 nM, respectively. As for `O=C(Nc1ccc(C[C@H](NC(=O)C2C3CCC(CC3)N2C(=O)CCc2ccoc2)C(=O)O)cc1)c1c(Cl)cncc1Cl` (stereo partly drawn), at human α4β7, the IC50 is 17 nM.

One may read the IC50 as the midpoint of a concentration-inhibition curve.
